Experimental findings from US9695149B2, “1,2,6-substituted benzimidazoles as flap modulators” (JANSSEN PHARMACEUTICA NV, priority 2013, dated 2017) are described below.

Amino acid sequences for entries named in this document (tags omitted). A change or cut given only in a name is not applied to a line headed by its entry.
UniProt P20292: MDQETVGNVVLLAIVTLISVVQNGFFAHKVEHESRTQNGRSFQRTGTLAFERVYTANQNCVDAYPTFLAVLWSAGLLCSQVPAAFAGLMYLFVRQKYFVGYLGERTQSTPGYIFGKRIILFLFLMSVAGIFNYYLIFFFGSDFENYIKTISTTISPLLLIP

This test addresses human FLAP (Homo sapiens (Human), UniProt P20292). Put plainly: FLAP binding assay (HTRF format). The note with it: human FLAP-containing Sf-9 membranes, wild type; average of runs. In general terms: TR-FRET usually uses a lanthanide donor and a delayed reading to cut background.
As to `Cc1ccc(COc2ccc3nc([C@H]4CCCC[C@H]4C(=O)O)n(Cc4cc(Br)ccc4F)c3c2)nc1` (racemic) [Example 229, racemic-cis-2-{1-(5-Bromo-2-fluorobenzyl)-6-[(5-methylpyridin-2-yl)methoxy]-1H-benzimidazol-2-yl}cyclohexanecarboxylic acid], the affinity, expressed as Ki, was 11 nM.
As for `Cc1ccc(COc2ccc3nc(C4CCCC[C@H]4C(=O)O)n(Cc4cc(Br)ccc4F)c3c2)nc1` (mixture of isomers) [Example 218, racemic trans-2-{1-(5-Bromo-2-fluorobenzyl)-6-[(5-methylpyridin-2-yl)methoxy]-1H-benzimidazol-2-yl}cyclohexanecarboxylic acid], the Ki – broadly, the dissociation constant of the complex between target and ligand, obtained from inhibition or displacement – stood at 24 nM.
`Cc1ccc(COc2ccc3nc(C4CCCC[C@H]4C(=O)O)n(Cc4cccc(N5CCCCC5)c4)c3c2)nc1` (mixture of isomers) [Example 223, racemic cis-2-{6-[(5-Methylpyridin-2-yl)methoxy]-1-(3-piperidin-1-ylbenzyl)-1H-benzimidazol-2-yl}cyclohexanecarboxylic acid]: the Ki is 6.8 nM.
In turn, `Cc1ccc(COc2ccc3nc(C4CCCC[C@H]4C(=O)O)n(Cc4cccc(N5CCC(F)(F)C5)c4)c3c2)nc1` (mixture of isomers) [Example 220, racemic cis-2-{1-[3-(3,3-Difluoropyrrolidin-1-yl)benzyl]-6-[(5-methylpyridin-2-yl)methoxy]-1H-benzimidazol-2-yl}cyclohexanecarboxylic acid] returned a Ki of 4.2 nM.
As for `Cc1ccc(COc2ccc3nc(C4CCCC[C@H]4C(=O)O)n(Cc4cccc(N5CCCCC5)c4)c3c2)nc1` (mixture of isomers) [Example 224, racemic trans-2-{6-[(5-Methylpyridin-2-yl)methoxy]-1-(3-piperidin-1-ylbenzyl)-1H-benzimidazol-2-yl}cyclohexanecarboxylic acid], the figure is 17 nM.
On to `Cc1ccc(COc2ccc3nc(C4[C@H](C(=O)O)C4(C)C)n(Cc4cc(Br)ccc4F)c3c2)nc1` (mixture of isomers) [Example 227, racemic cis-3-{1-(5-Bromo-2-fluorobenzyl)-6-[(5-methylpyridin-2-yl)methoxy]-1H-benzimidazol-2-yl}-2,2-dimethylcyclopropanecarboxylic acid], for which the affinity corresponds to a Ki of 180 nM.
